# Molecular target: epidermal growth factor receptor (EGFR) (Homo sapiens, UniProt P00533)
smiles,measurement,value
CN/N=N/c1ccc2ncnc(Nc3cccc(Br)c3)c2c1 [ZR08],"EGFR autophosphorylation in A431 cells at 30 μM, before and after washout (Weste)","irreversible inhibition was observed in cells exposed to the daughter molecules, RB14 and ZR08"

# Reference: paper PMC2747684, “Sustained antiproliferative mechanisms by RB24, a targeted precursor of multiple inhibitors of epidermal growth factor receptor and a DNA alkylating agent in the A431 epidermal carcinoma of the vulva cell line” (British Journal of Cancer, 2004)
